# Patent US10039753B2, “Imidazo[4,5-c]quinoline and imidazo[4,5-c][1,5]naphthyridine derivatives as LRRK2 inhibitors” (Pfizer Inc., priority 2015, dated 2018)
# By UniProt entry, the sequences of proteins in these tests, tags left out. Residues count along the entry.
# UniProt Q5S007, 970-2527 G2019S limits assumed: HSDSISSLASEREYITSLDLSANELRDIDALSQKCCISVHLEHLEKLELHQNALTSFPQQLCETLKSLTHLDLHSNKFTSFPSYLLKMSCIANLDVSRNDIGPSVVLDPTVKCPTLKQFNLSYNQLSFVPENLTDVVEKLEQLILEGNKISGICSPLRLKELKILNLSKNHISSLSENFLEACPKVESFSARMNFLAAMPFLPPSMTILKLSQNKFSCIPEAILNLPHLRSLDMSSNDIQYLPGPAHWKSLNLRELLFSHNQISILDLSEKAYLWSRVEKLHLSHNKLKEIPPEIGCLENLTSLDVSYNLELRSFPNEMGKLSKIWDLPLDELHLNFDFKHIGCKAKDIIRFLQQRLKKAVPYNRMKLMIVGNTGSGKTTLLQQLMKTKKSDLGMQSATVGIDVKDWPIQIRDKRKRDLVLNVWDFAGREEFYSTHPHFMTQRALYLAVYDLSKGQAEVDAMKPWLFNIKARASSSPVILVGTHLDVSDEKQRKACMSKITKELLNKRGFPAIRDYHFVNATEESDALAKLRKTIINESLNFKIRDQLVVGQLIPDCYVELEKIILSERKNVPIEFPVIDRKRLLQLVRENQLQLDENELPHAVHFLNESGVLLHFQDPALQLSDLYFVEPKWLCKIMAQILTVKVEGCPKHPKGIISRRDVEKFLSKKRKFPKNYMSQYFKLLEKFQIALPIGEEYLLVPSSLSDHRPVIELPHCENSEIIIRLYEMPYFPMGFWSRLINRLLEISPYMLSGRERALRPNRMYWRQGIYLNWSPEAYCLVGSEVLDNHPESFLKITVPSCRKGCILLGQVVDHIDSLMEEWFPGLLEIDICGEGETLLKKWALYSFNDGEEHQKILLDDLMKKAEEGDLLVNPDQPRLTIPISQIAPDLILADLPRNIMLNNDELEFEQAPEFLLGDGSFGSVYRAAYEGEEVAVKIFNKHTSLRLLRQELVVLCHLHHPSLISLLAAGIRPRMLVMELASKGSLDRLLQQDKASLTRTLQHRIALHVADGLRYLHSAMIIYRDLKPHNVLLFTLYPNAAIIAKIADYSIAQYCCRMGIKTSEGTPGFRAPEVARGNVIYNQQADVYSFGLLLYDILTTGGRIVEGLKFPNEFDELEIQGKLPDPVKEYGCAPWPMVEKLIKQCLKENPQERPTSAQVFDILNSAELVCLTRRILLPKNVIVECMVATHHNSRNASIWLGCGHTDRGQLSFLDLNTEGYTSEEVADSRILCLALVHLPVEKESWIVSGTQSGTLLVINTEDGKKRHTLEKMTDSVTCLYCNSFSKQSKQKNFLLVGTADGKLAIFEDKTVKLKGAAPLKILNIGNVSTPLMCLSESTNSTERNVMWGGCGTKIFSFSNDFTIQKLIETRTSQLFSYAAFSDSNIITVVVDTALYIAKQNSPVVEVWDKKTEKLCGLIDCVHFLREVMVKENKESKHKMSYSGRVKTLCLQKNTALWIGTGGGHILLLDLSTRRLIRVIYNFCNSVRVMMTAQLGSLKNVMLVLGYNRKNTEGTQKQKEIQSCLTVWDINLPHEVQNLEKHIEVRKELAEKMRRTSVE
# UniProt Q5S007, 970-2527 limits assumed: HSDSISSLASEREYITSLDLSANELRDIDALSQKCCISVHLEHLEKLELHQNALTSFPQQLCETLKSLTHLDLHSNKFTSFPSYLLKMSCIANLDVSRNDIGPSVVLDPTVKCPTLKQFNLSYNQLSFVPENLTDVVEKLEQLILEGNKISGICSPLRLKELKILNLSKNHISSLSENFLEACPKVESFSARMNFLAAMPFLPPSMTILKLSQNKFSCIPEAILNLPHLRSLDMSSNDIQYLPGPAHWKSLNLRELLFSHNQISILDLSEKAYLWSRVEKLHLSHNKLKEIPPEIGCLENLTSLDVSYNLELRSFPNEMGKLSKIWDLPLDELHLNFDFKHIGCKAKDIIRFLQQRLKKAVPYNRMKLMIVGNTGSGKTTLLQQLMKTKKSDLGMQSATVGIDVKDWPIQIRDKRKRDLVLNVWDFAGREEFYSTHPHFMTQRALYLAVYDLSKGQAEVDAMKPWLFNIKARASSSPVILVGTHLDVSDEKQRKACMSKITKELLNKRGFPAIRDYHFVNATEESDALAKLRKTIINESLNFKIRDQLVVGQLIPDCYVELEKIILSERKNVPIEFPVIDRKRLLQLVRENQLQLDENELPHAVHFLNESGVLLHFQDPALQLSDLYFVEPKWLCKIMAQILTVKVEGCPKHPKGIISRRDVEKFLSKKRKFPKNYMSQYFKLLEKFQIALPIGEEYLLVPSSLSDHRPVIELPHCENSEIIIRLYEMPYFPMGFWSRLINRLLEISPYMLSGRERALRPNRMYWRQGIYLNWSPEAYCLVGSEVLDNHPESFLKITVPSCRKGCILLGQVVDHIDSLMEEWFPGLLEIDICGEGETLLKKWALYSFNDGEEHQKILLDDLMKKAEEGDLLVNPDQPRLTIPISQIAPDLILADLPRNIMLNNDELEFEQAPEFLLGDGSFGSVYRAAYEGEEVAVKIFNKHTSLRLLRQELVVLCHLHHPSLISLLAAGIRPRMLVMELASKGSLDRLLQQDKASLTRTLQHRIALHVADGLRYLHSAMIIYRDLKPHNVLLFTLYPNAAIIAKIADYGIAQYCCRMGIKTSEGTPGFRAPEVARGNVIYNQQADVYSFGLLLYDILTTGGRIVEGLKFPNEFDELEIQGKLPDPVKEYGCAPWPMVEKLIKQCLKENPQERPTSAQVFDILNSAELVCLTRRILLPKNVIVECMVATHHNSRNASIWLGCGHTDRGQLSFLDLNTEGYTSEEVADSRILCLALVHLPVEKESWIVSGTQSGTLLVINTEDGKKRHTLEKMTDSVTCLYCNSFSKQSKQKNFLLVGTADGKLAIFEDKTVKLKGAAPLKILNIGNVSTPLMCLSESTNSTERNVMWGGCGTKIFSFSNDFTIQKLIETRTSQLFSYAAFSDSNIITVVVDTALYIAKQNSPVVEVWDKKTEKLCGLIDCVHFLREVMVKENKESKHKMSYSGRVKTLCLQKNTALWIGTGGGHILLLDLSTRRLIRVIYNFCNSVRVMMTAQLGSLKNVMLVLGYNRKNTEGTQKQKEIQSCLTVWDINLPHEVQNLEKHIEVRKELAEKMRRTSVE
# What was measured:
# Assay type in all cases: biochemical
# mutant G2019S LRRK2 = mutant G2019S LRRK2 (Homo sapiens, UniProt Q5S007, G2019S); assay: LRRK2 Assay, Format 2 (Lantha Screen), G2019S mutant; parameters: purchased Invitrogen PV4881; conditions: geometric mean of 2-4 determinations unless otherwise indicated (a: >=5; b: single determination)
# Experimental: (§1) LRRK2 kinase activity was measured using Lantha Screen technology from Invitrogen. GST-tagged truncated LRRK2 from Invitrogen (Cat # PV4874) was incubated with a fluorescein-labeled peptide substrate based upon ezrin/radixin/moesin (ERM), also known as LRRKtide (Invitrogen cat # PR8976A), in the presence of a dose response of compound. Upon completion, the assay was stopped and detected with a terbium labeled anti-phospho-ERM antibody (Invitrogen, cat # PR8975A). […] Using Echo acoustic dispensing, 60 nL of compound was transferred to a low volume Corning 384-well assay plate. 3 μL of a working solution of substrate (200 nM LRRKtide, […]) prepared in assay buffer (50 mM HEPES, pH 7.5, 3 mM MgCl2, with 2 mM DTT and 0.01% Brij35 added fresh) was added to the 60 nL compound assay plate. The kinase reaction was started with […] of a working solution of LRRK2 enzyme at a concentration of […]. The final reaction concentrations were 100 nM LRRKtide, […], […] LRRK2 enzyme and a compound dose response with a top dose of 3 mM. The reaction was allowed to progress at room temperature for 30 minutes and then stopped with the addition of […] of detection buffer (20 mM Tris pH 7.6, 0.01% NP-40, 6 mM EDTA with 2 nM terbium labeled anti-phospho-ERM). After an incubation of 1 hour at room temperature, the plate was read on an Envision with an excitation wavelength of 340 nm and a reading emission at both 520 nm and 495 nm. The ratio of the 520 nm and 495 nm emission was used to analyze the data. Inhibition of mutant G2019S LRRK2 (Invitrogen cat # PV4881) was measured in the exact same method. All final concentrations of substrate ATP and enzyme were the same.
# [1] = molecular target: T1, GST-tagged truncated LRRK2 (Homo sapiens, UniProt Q5S007); assay: LRRK2 Assay, Format 2 (Lantha Screen), WT; conditions: geometric mean of 2-4 determinations unless otherwise indicated (a: >=5; b: single determination)
# T1 construct: GST-tagged truncated LRRK2 from Invitrogen (Cat # PV4874); GST; purchased Invitrogen PV4874
# Experimental: as §1
# [2] = system: kinase selectivity mini-panel; assay: Kinase selectivity (mini-panel), further assay run, Table 5A; conditions: 1 mM ATP, 1 μM drug concentration
# Experimental: The compounds were run using a commercially available kinase selectivity assay which is available from CarnaBio USA, Inc. 209 West Central St., Suite 307, Natick, Mass. 01760 USA. The compounds of Examples 3, 4, 5 and 22 were run in the assay at a concentration of 1 μM using an ATP concentration of 1 mM. Table 5A below provides kinase selectivity from a further assay run for the compounds of Examples 4, 11, 5, 104, 102 and 116.
compound,measurement,setting,value
"Cc1cnc(Cc2nc3cnc4ccc(C#N)cc4c3n2[C@@H]2CC[C@H](F)C2)cn1 (single isomer, unassigned; ent-1) [Example 109, 1-(cis-3-Fluorocyclopentyl)-2-[(5-methylpyrazin-2-yl)methyl]-1H-imidazo[4,5-c]quinoline-8-carbonitrile, ENT-1]",IC50,mutant G2019S LRRK2,7.11 nM
same,IC50,[1],5.21 nM
"Cc1cc(Cc2nc3cnc4ccc(C#N)cc4c3n2C2CCCCC2(F)F)no1 (single isomer, unassigned; ent-1) [Example 111, 1-(2,2-Difluorocyclohexyl)-2-[(5-methyl-1,2-oxazol-3-yl)methyl]-1H-imidazo[4,5-c]quinoline-8-carbonitrile, ENT-1]",IC50,mutant G2019S LRRK2,12.2 nM
same,IC50,[1],9.41 nM
"Cc1cn(Cc2nc3cnc4ccc(C#N)cc4c3n2[C@@H]2CC[C@H](F)C2)nn1 (single isomer, unassigned; ent-2) [Example 101, 1-(cis-3-Fluorocyclopentyl)-2-[(4-methyl-1H-1,2,3-triazol-1-yl)methyl]-1H-imidazo[4,5-c]quinoline-8-carbonitrile, ENT-2]",IC50,mutant G2019S LRRK2,8.61 nM
same,IC50,[1],4.94 nM
"Cc1cc(Cc2nc3cnc4ccc(Cl)cc4c3n2[C@@H]2CCO[C@H](C)C2)ncn1 [Example 102, 8-Chloro-2-[(6-methylpyrimidin-4-yl)methyl]-1-[(2R,4R)-2-methyltetrahydro-2H-pyran-4-yl]-1H-imidazo[4,5-c]quinoline]",IC50,mutant G2019S LRRK2,7.05 nM
same,IC50,[1],6 nM
same,percent inhibition of ABL,[2]; kinase ABL,1.95%
same,percent inhibition of AKT,[2]; kinase AKT,4.16%
same,percent inhibition of AURA,[2]; kinase AURA,11.07%
same,percent inhibition of BTK,[2]; kinase BTK,−2.03%
same,percent inhibition of CDK2_CyclinA,[2]; kinase CDK2_CyclinA,7.12%
same,percent inhibition of CHK1,[2]; kinase CHK1,7.04%
same,percent inhibition of CHK2,[2]; kinase CHK2,0.5%
same,percent inhibition of CKIIa′,[2]; kinase CKIIa′,2.15%
same,percent inhibition of CKIa,[2]; kinase CKIa,4.89%
same,percent inhibition of CaMKIIa,[2]; kinase CaMKIIa,7.95%
same,percent inhibition of EGFR,[2]; kinase EGFR,0.11%
same,percent inhibition of ERK2,[2]; kinase ERK2,3.64%
same,percent inhibition of EphA2,[2]; kinase EphA2,2.2%
same,percent inhibition of FGFR1,[2]; kinase FGFR1,34.71%
same,percent inhibition of GSK3b,[2]; kinase GSK3b,2.8%
same,percent inhibition of HGFR,[2]; kinase HGFR,3.61%
same,percent inhibition of IRAK4,[2]; kinase IRAK4,8.34%
same,percent inhibition of IRK,[2]; kinase IRK,2.41%
same,percent inhibition of JAK3,[2]; kinase JAK3,50.75%
same,percent inhibition of KDR (VEGF),[2]; kinase KDR (VEGF),51.75%
same,percent inhibition of LCK,[2]; kinase LCK,18.64%
same,percent inhibition of MARK1,[2]; kinase MARK1,6.6%
same,percent inhibition of MK2,[2]; kinase MK2,1.54%
same,percent inhibition of MLCK_sk,[2]; kinase MLCK_sk,0.92%
same,percent inhibition of MST2,[2]; kinase MST2,51.42%
same,percent inhibition of MST4,[2]; kinase MST4,4.8%
same,percent inhibition of PAK4,[2]; kinase PAK4,4.83%
same,percent inhibition of PDK1,[2]; kinase PDK1,8.36%
same,percent inhibition of PIM2,[2]; kinase PIM2,5.55%
same,percent inhibition of PKACa,[2]; kinase PKACa,0.21%
same,percent inhibition of PRKCB2,[2]; kinase PRKCB2,10.52%
same,percent inhibition of ROCKI,[2]; kinase ROCKI,−0.87%
same,percent inhibition of SGK,[2]; kinase SGK,7.15%
same,percent inhibition of SRC,[2]; kinase SRC,5.87%
same,percent inhibition of TAO2,[2]; kinase TAO2,2.75%
same,percent inhibition of TIE2,[2]; kinase TIE2,2.01%
same,percent inhibition of TRKA,[2]; kinase TRKA,58.72%
same,percent inhibition of ZC1 (HGK),[2]; kinase ZC1 (HGK),3.72%
same,percent inhibition of p38,[2]; kinase p38,3.32%
"C[C@@H]1C[C@H](n2c(Cc3cnc(C(F)(F)F)cn3)nc3cnc4ccc(Cl)cc4c32)CCO1 [Example 105, 8-Chloro-1-[(2R,4R)-2-methyltetrahydro-2H-pyran-4-yl]-2-{[5-(trifluoromethyl)pyrazin-2-yl]methyl}-1H-imidazo[4,5-c]quinoline]",IC50,mutant G2019S LRRK2,10.8 nM
same,IC50,[1],10.2 nM
"Cc1cnc(Cc2nc3cnc4ccc(C#N)cc4c3n2[C@@H]2CCO[C@H](C)C2)cn1 [Example 108, 2-[(5-Methylpyrazin-2-yl)methyl]-1-[(2R,4R)-2-methyltetrahydro-2H-pyran-4-yl]-1H-imidazo[4,5-c]quinoline-8-carbonitrile]",IC50,mutant G2019S LRRK2,8.41 nM
same,IC50,[1],9.54 nM
"COc1cnn(Cc2nc3cnc4ccc(Cl)cc4c3n2[C@@H]2CCO[C@H](C)C2)c1 [Example 110, 8-chloro-2-[(4-methoxy-1H-pyrazol-1-yl)methyl]-1-[(2R,4R)-2-methyltetrahydro-2H-pyran-4-yl]-1H-imidazo[4,5-c]quinoline]",IC50,mutant G2019S LRRK2,6.48 nM
same,IC50,[1],7.12 nM
"Cc1nc(Cc2nc3cnc4ccc(C#N)cc4c3n2[C@@H]2CCN(C)C2)no1 [Example 112, 2-[(5-Methyl-1,2,4-oxadiazol-3-yl)methyl]-1-[(3R)-1-methylpyrrolidin-3-yl]-1H-imidazo[4,5-c]quinoline-8-carbonitrile]",IC50,mutant G2019S LRRK2,14.8 nM
same,IC50,[1],9.19 nM
"CN1CC[C@@H](n2c(Cc3cnccn3)nc3cnc4ccc(C#N)cc4c32)C1 [Example 113, 1-[(3R)-1-Methylpyrrolidin-3-yl]-2-(pyrazin-2-ylmethyl)-1H-imidazo[4,5-c]quinoline-8-carbonitrile]",IC50,mutant G2019S LRRK2,9.73 nM
same,IC50,[1],6.51 nM
"Cc1nc(Cc2nc3cnc4ccc(C(F)(F)F)cc4c3n2[C@@H]2CCO[C@H](C)C2)no1 [Example 114, 2-[(5-Methyl-1,2,4-oxadiazol-3-yl)methyl]-1-[(2R,4R)-2-methyltetrahydro-2H-pyran-4-yl]-8-(trifluoromethyl)-1H-imidazo[4,5-c]quinoline]",IC50,mutant G2019S LRRK2,2.15 nM
same,IC50,[1],3.29 nM
"Cc1cc(Cc2nc3cnc4ccc(Cl)cc4c3n2[C@@H]2CCO[C@H](C)C2)on1 [Example 115, 8-Chloro-2-[(3-methyl-1,2-oxazol-5-yl)methyl]-1-[(2R,4R)-2-methyltetrahydro-2H-pyran-4-yl]-1H-imidazo[4,5-c]quinoline]",IC50,mutant G2019S LRRK2,6 nM
same,IC50,[1],4.62 nM
